Test results reported in PubChem BioAssay AID1529 (NMMLSC, 2009).
The entries are a selection whose mix differs from that of the whole data set. Active and inactive are the calls of the source.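 Rule for the calls: active = binding response more than 3 SD above or below the average of its plate-row segment, actives on both sides; inconclusive = wells at one plate position flagged as instrument error; inactive = the rest.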

Sequences of proteins named here, by UniProt entry; tags and fusion partners are left off.
UniProt Q99759, whole entry: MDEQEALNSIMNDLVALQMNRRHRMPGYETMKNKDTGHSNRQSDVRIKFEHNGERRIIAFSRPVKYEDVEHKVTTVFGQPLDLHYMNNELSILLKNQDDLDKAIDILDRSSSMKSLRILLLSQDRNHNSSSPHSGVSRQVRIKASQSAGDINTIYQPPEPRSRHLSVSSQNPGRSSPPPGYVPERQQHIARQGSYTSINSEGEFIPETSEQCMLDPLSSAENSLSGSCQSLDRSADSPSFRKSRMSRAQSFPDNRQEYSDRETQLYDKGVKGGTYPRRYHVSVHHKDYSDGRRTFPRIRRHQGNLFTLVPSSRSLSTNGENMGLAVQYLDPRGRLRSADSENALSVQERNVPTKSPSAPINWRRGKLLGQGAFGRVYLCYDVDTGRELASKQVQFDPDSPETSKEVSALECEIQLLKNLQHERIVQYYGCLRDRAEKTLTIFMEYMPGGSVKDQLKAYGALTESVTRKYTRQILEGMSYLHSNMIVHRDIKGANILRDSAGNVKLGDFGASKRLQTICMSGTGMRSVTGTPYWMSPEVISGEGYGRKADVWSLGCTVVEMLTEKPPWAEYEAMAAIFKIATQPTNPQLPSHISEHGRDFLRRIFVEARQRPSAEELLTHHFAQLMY

target: Mitogen-activated protein kinase kinase kinase 3 (Homo sapiens) (UniProt Q99759); test: compounds raising or lowering MEK5 association with MEKK3 PB1 – biochemical, wildtype MEKK3, multiplex bead flow cytometry, Alexa488-MEK5, primary screen (AID 1529); conditions: bead-based flow cytometry, Alexa488-MEK5 binding to MEKK3; at 10 µM; actives lie on both sides; 0 = blocked by unlabeled MEK5, 100 = vehicle;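 note: Alexa488 bead fluorescence after subtracting the streptavidin-only scavenger bead signal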

Row | Compound | binding response (% of control)
1 | CCN1CCC(Nc2ccc(Cl)cc2)CC1 | inactive: 100%
2 | N#CC1(Nc2ccccc2)CCN(CCc2ccccc2)CC1 | inactive: 108%
3 | O=C(NCC1(N2CCCCC2)CCCCC1)c1ccc(OC(F)F)cc1 | inactive: 97%
4 | c1ccc(CN2CCC(Nc3ccccc3)CC2)cc1 | inactive: 95%
5 | CCCN1CCC(Nc2cc(OC)cc(OC)c2)CC1 | inactive: 100%
6 | CN(C)C1(CNC(=O)c2cccc(C#N)c2)CCCCC1 | inactive: 102%
7 | CC(C)(C)OC(=O)N1CCC(N(C(=O)c2ccccc2)c2ccc(Cl)cc2)CC1 | inactive: 94%
8 | N#Cc1ccc(C(=O)NCC2(N3CCCCC3)CCCCC2)cc1 | inactive: 104%
9 | O=C(OC1CN2CCC1CC2)C1c2ccccc2C=Cc2ccccc21 (stereo not given) | inactive: 113%
10 | CCOC(=O)N1CCC(Nc2ccc(C)cc2)CC1 | inactive: 104%
11 | COc1ccc(C(=O)NCC2(N3CCOCC3)CCCCC2)cc1OC | inactive: 93%
12 | CCCOc1ccc(C)cc1CN(CCCl)CCCl | inactive: 89%
13 | CN1CCC(Nc2ccc(Cl)cc2)CC1 | inactive: 101%
14 | CCC(CO)(C(=O)OC1CN2CCC1CC2)c1ccccc1 (stereo not given) | inactive: 93%
15 | COc1cccc(C(=O)N(c2cc(C)cc(C)c2)C2CCN(C(=O)OC(C)(C)C)CC2)c1 | inactive: 102%
16 | COc1cc(OC)cc(C(=O)NCC2(N3CCOCC3)CCCCC2)c1 | inactive: 98%
17 | CCCOc1ccc(C(=O)NCC2(N(C)C)CCCCC2)cc1 | inactive: 105%
18 | CC(C)(C)OC(=O)N1CCC(Nc2ccccc2)CC1 | inactive: 102%
19 | O=C(O)C1(Nc2ccccc2)CCN(Cc2ccccc2)CC1 | inactive: 95%
20 | CCOc1ncccc1C(=O)NCC1(N2CCOCC2)CCCCC1 | inactive: 98%
21 | CN1CCC(Nc2ccc(F)c(Cl)c2)CC1 | inactive: 100%
22 | CN(C)c1ccc(C(=O)NCC2(N3CCCCC3)CCCCC2)cc1 | inactive: 98%
23 | CCN1CCC(Nc2cccc(F)c2)CC1 | inactive: 93%
24 | Fc1ccccc1NC1CCN(Cc2ccccc2)CC1 | inactive: 80%
25 | COc1cc(OC)cc(C(=O)NCC2(N3CCCCC3)CCCCC2)c1 | inactive: 98%
